Measured values from ChEMBL document CHEMBL2146384 (J Med Chem, 2012).

Molecular target: T1, Deoxyuridine 5'-triphosphate nucleotidohydrolase, mitochondrial (Homo sapiens, UniProt P33316)
T1 sequence (P33316 whole entry): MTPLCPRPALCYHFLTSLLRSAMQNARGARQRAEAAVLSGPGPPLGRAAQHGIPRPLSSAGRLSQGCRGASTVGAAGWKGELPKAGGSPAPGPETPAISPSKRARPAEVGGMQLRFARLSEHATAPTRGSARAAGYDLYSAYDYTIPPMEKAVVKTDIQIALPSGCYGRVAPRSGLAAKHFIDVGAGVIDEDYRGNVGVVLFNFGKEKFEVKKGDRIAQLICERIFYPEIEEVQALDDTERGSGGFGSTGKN
Assay: Inhibition of human dUTPase-mediated formation of [5-3H]dUMP expressed in Escherichia coli BL21 (DE3) after 15 mins by HPLC analysis

IC50: 0.028 µM
Structure (SMILES): CC(C)(CC/C=C/Cn1ccc(=O)[nH]c1=O)NS(=O)(=O)c1cccc(OCC2CC2)c1
